By UniProt entry, the sequences of proteins in these tests, tags left out.
UniProt P08173, whole entry: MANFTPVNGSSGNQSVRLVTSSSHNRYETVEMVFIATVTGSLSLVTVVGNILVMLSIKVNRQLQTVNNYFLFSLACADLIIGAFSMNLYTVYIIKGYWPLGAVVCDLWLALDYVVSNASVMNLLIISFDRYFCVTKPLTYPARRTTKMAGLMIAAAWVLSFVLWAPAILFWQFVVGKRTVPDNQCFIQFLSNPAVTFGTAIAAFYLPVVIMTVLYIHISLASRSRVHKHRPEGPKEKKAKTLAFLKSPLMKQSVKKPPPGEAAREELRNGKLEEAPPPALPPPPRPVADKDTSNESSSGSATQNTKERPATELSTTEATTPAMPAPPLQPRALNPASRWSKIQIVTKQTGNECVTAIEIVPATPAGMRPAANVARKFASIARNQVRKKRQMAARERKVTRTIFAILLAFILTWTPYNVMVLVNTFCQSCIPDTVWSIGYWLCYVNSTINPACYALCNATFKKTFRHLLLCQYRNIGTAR

According to patent EP0912515B1:

Target: cloned human m4 muscarinic receptor (Homo sapiens, UniProt P08173)
Assay: Muscarinic binding activity, 3H-QNB displacement, m4 receptor
Conditions: Ki for m4 divided by Ki for m2
Protocol: The compound of interest is tested for its ability to inhibit binding to the cloned human m1, m2 and m4 muscarinic receptor subtypes. The sources of receptors in these studies were membranes from stably transfected CHO cell lines which were expressing each of the receptor subtypes. Following growth, the cells were pelleted and subsequently homogenized using a Polytron in 50 volumes cold 10 mM Na/K phosphate buffer, pH 7.4 (Buffer B). The homgenates were centrifuged at 40,000 x g for 20 minutes at 4°C. The resulting supernatants were discarded and the pellets were resuspended in Buffer B at a final concentration of 20 mg wet tissue/ml. These membranes were stored at -80°C until utilized in the binding assays described below.
Binding to the cloned human muscarinic receptors was performed using ^3H-quinuclidinyl benzilate (QNB) (Watson et al., 1986). Briefly, membranes (approximately 8, 20, and 14 µg of protein assay for the m1, m2, and m4 containing membranes, respectively) were incubated with ^3H-QNB (final concentration of 100-200 pM) and increasing concentrations of unlabeled drug in a final volume of 2 ml at 25°C for 90 minutes. Non-specific binding was assayed in the presence of 1 µM atropine. The incubations were terminated by vacuum filtration over GF/B glass fiber filters using a Skatron filtration apparatus and the filters were washed with cold 10mM Na/K phosphate butter, pH 7.4. Scintillation cocktail was added to the filters and the vials were incubated overnight. The bound radioligand was quantified in a liquid scintillation counter (50% efficiency). The resulting data were analyzed for IC50 values (i.e. the concentration of compound required to inhibit binding by 50%) using the EBDA computer program (McPherson, 1985).
To determine the degree of selectivity of a compound for binding the m2 receptor, the Ki value for m1 receptors was divided by the Ki value for m2 receptors. A higher ratio indicates a greater selectivity for binding the m2 muscarinic receptor. A similar calculation is made to determine the m4 selectivity.

Row | m4 Selectivity Ratio (Ki,m4/Ki,m2) | SMILES
1 | 3.6 | N#CN(c1ccc(S(=O)(=O)c2ccc3c(c2)OCO3)cc1)C1CCN(C2CCCCC2)CC1
2 | 1.4 | N#CN(c1ccc(S(=O)(=O)C2CCCCC2)cc1)C1CCN(C2CCCCC2)CC1
3 | 4.4 | COc1ccc([S+]([O-])c2ccc(N(C#N)C3CCN(C4CCCCC4)CC3)cc2)cc1 (stereo not drawn)
4 | 3 | CC(=O)Nc1ccc([S+]([O-])c2ccc(N(C#N)C3CCN(C4CCCCC4)CC3)cc2)cc1 (stereo not drawn)

Row | SMILES | m4 Selectivity Ratio (Ki,m4/Ki,m2)
5 | COc1ccc(S(=O)(=O)c2ccc(N(C)C3CCN(C4CCCCC4)CC3)cc2)cc1 | 3.3
6 | C=CCN(c1ccc(S(=O)(=O)c2ccc(OC)cc2)cc1)C1CCN(C2CCCCC2)CC1 | 2.7
